In this assay the test system is vesicular stomatitis virus. It counts as cell-based. To be noted: added 24 hours before 100-fold lethal dose of virus, read 24 hours after.

Take “Prep. D: Example 25: nonmodified native Interferon-α2”: the Antiviral titer was 2×10^5.
